This is a selection; strong and weak results do not stand in their true shares. Some tests of the compounds listed are not included; inactive here does not mean inactive elsewhere. Results filed as inconclusive are left out. Activity calls are given as the source filed them. The call rests on the fitted dose curve; in most records, active means well fitted inhibition curve with a large enough effect in the main read-out, with a control signal flat (not every such curve was filed as active); inconclusive means small, poorly fitted or top-dose-only effect, or a change in a side signal; inactive means flat fitted curve, though single readings scatter.
Biological target: Caspase-7 (Homo sapiens) (UniProt P55210)
Assay: qHTS Assay for Allosteric/Competitive Inhibitors of Caspase-7; further: % of control where 0% means no effect
Details: recombinant caspase-7, Ac-DEVD-AFC fluorescence rate; at 11.5 µM (top of the series) unless noted
Description: NIH Molecular Libraries Screening Centers Network [MLSCN]
NIH Chemical Genomics Center [NCGC]
PI Name: Dr. James Wells,
Dr. Enrique Perez-Paya, Dr.Janice Williams, Dr. Dennis Wolan, a person
The caspases (Cysteine Aspartyl Protease) comprise a related family of 14 dimeric proteases that are critical mediators of apoptosis (programmed cell death) and inflammation. The caspases represent an important class of drug targets for stroke, ischemia, cancer and inflammatory diseases. […] One goal of this project was to identify compounds that act as allosteric inhibitors via stabilizing the procaspase form of the enzyme. Previous work in Well's laboratory has shown that such allosteric inhibitors can be identified and these act by binding at the dimer interface of enzyme (Hardy, Lam et al., 2004).
The biochemical assay was configured using purified caspase 7 at a high enzyme concentration to promote formation of the homodimers and thus facilitate the identification of allosteric inhibitors. The overall goal was to identify reversible inhibitors with better drug-like properties than the currently available set of aspartyl-containing peptidomimetics that covalently bind the active site. Caspase 7 was assayed using the profluorescent substrate Ac-DEVD-AFC. After initiation of the assay with substrate the plates were rapidly read using an automated robotic system (Kalypsys, Inc.) to maintain consistent timing. A kinetic mode of detection was used where the initial rate was collected (estimated final product formation was ~10%). Compounds were screened as a concentration-titration series that ranged from 57 uM to 0.7 nM. Below is the protocol used for caspase 7.
NCGC Assay Protocol Summary:
Caspase 7 was prepared in buffer (50 mM HEPES pH 7.5, 50 mM KCl, 200 mM NaCl, 10 mM DTT, 0.1% CHAPS) at a concentration of 66.6 nM and 3 uL was dispensed to all wells using black solid Kalypsys 1536-well plates. 20 nL of DMSO containing compounds was added using a pin-tool (Kalypsys Inc.) to columns 5-48. Then 20 nL of DMSO solution from a control plate was added to columns 1-4. Controls were: Column 1, 16 point titration with each concentration in duplicate (1:1 dilutions in DMSO; final starting concentration was 57 uM) of the caspase 7 inhibitor Ac-DEVD-CHO (Alexis Biochemicals); Column 2, a 16 point titration with each concentration in duplicate of the free AFC fluorophore prepared in DMSO (Alexis Biochemicals), final starting was 40 uM; Column 3 neutral (DMSO only) control; Column 4: DMSO alone, to serve as a negative control (no substrate was added). Then 1 uL of 20 uM the substrate Ac-DEVD-AFC (Alexis Biochemicals) prepared in the same buffer was dispensed to all wells except columns 2 and 4 and the plates were immediately transferred (< 1 min) to the Viewlux. The plates were then exposed using 405 nm excitation/520 nm emission filters for 4 sec and read at 20 sec intervals for 3 min. […]
Concentration-response curves were fitted to the data calculated from slope of the linear regression of fluorescent intensity versus time (the rate). The concentration-effect curves were then classified based on curve quality (r2), response magnitude and degree of measured activity. […] Inconclusive compounds had appreciable concentration-dependent effects on both the measured rate and the interpolated basal fluorescence intensity at the start of the reaction but where the basal fluorescent intensity was marginal (e.g. < 10-fold). […]

Sequences of proteins named here, by UniProt entry; tags and fusion partners are left off. Residues count along the entry.
UniProt P55210, 24-198 limits assumed: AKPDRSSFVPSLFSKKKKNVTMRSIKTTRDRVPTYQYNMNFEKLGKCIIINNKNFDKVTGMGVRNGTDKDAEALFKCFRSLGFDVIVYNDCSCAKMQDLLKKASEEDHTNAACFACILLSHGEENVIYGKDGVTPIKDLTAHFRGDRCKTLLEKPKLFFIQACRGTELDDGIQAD
UniProt P55210, 207-303 limits assumed: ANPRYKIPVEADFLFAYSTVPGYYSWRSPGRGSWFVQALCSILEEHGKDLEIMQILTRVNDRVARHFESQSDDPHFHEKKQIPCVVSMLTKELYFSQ

SMILES	activity change, negative = inhibition
CN1CCC[C@H](OC(=O)[C@](O)(c2ccccc2)C2CCCC2)C1	inactive: -2.48%
O=C(OC1CN2CCC1CC2)C(CO)(c1ccccc1)c1ccccc1 (stereo not given)	inactive: -3.7% [at 57.5 µM]
CN1CC[C@H](OC(=O)[C@](O)(c2ccccc2)C2CCCC2)C1	inactive: 0.706%
C=C(C)C#C[C@@](O)(C(=O)OC1CCN(C)CC1)c1ccccc1	inactive: 0.533%
CN(C)c1cccc(C(=O)NCC2(N(C)C)CCCCC2)c1	inactive: -1.51% [at 57.5 µM]

Source: PubChem BioAssay AID889 (National Center for Advancing Translational Sciences (NCATS), 2007)
